For the assay, the target named is TPK enzyme (Homo sapiens (Human), UniProt Q9H3S4). The experiment in a line: TPK enzyme activity test. As to conditions: calculated with the effect of DMSO on TPK enzyme activity as 100%; tested form: 2HCl.

Amino acid sequences for entries named in this document (tags omitted).
UniProt Q9H3S4, whole entry: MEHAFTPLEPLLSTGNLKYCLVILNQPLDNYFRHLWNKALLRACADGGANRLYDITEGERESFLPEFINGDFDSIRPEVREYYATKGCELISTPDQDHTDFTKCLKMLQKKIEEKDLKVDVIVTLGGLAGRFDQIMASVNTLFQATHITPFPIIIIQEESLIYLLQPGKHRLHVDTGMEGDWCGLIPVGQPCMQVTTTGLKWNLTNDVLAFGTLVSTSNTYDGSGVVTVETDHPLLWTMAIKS

The term Emax denotes the greatest response seen or fitted, relative to the assay's reference.

For `OCCN1CCN(CCCN2c3ccccc3Sc3ccc(C(F)(F)F)cc32)CC1`, the maximal response (Emax) is 132.31%.

Values taken from patent US20250388584A1, “TPK AGONIST AND METHOD FOR TREATING NEURODEGENERATIVE DISEASES USING SAME” (SHANGHAI RAISING PHARMACEUTICAL CO., LTD., priority 2022, published 2025).
